Laboratory results as given in publication PMC9085437, “Silica-coated magnetic iron oxide functionalized with hydrophobic polymeric ionic liquid: a promising nanoscale sorbent for simultaneous extraction of antidiabetic drugs from human plasma prior to their quantitation by HPLC” (RSC Advances, 2018).

Experiment: Pharmacokinetic assessment in healthy fed male volunteers after oral tablet administration, plasma quantified by MSPE-HPLC-UV
Conditions: human plasma, oral fixed-dose combination Invokamet tablet (50 mg CANA/500 mg MET), mean ± SD
Procedure: The chromatographic analysis was conducted using a Waters alliance e2695, (Massachusetts, USA) system which was equipped with a Waters 2487 dual wavelength detector and C18 TMS endcapping/reversed phase column (Luna 5 μm C18 100 A HPLC column 250 × 4.6 mm id, Phenomenex Co, Torrance, CA) at 40 °C. The mobile phase which being used in an isocratic mode was composed of potassium dihydrogen phosphate and sodium dodecyl sulfate (0.01 M, pH 6): acetonitrile (55 : 45, v/v) and passed through column with flow rate of 1 mL min^−1 (the mobile phase was filtered and degassed daily prior to use in HPLC). […] The column effluent was monitored at UV wavelength of 215 nm and the injection volume was 20.0 μL. The mobile phase was filtered by passing it through a 0.2 μm membrane filter (Millipore, Bedford, MA, USA).
Every frozen human plasma were firstly thawed at room temperature and placed into a sample glass tube. Preparation of plasma before MSPE method was based on protein precipitation with aid of acetonitrile. In this regard, the plasma (1.9 mL) was fortified with 100.0 μL of required concentrations of analytes followed by mixing with 2.0 mL ACN. The obtained solution was vortexed for 1 min and centrifuged for 5 min at 3500 rpm. Then, ACN content of the clear supernatant was evaporated under nitrogen stream and the remaining sample was transferred into 4.0 mL buffer solution at pH 4.0. […]

CN(C)C(=N)N=C(N)N [MET, metformin]
AUC0–∞: 7022.8 ± 703.6 ng·h/mL
